Reference: US20240189316A1, “DEUTERATED ANALOGS OF ETIFOXINE AND METHODS OF ADMINISTRATION WITHOUT AUTOINDUCTION OF METABOLISM” (Gaba Therapeutics Inc., priority 2022, published 2024)

Experiment: Phase 1 multiple-ascending dose study, plasma pharmacokinetics in healthy subjects
Details: human, in vivo
Protocol: The first dose of study drug was given on Day 1. On Days 1 through 6, subjects subsequently received two (q12h) oral doses of study drug each day. A final single dose of study drug was given on Day 7. Each dose of study drug was given with a 240 mL glass of water at the end of ingestion of a standard meal. The meal was provided 30 minutes before dosing and was completed within 30 minutes or less. On Day 1 and Day 7, subjects were required to fast for 8 hours before the morning meal dose and for 2 hours post dose (water was freely available during this time).

With `[2H]C([2H])([2H])C([2H])([2H])NC1=Nc2ccc(Cl)cc2C(C)(c2ccccc2)O1` (racemic) [Deuterated Etifoxine, 6-chloro-N-(ethyl-d5)-4-methyl-4-phenyl-4H-3,1-benzoxazin-2-amine] the Renal clearance was “low renal clearance”.
